For data set [1], the system named is gut MPS and liver MPS on-platform. The data set can be described thus: Drug and metabolite concentration-time profiles on the multi-MPS platform. Particulars: Liver only arm; three-day experiment.
For data set [2] the test system is unchanged.

Like-named read-outs stand apart in the source and are kept apart here.

For `O=C(O)Cc1ccccc1Nc1c(Cl)cccc1Cl` [DCF, diclofenac], the “metabolism on-platform (in words)” value in data set [1] is “substantial”; in data set [2], “minimal”.

(Values after article PMC6540747 (The AAPS journal, 2017).)
